This is an account of results in patent US4937266A, “Inhibitory agent of hepatic fibrosis” (priority 1988, dated 1990).

One experiment deals with prolyl hydroxylase. The following applies: rabbit, in vivo.
The subject of the next experiment is hepatic fibrosis. To be noted: rabbit, in vivo.

On to `CC(C)(CO)[C@@H](O)C(=O)NCCC(=O)NCCSSCCNC(=O)CCNC(=O)[C@H](O)C(C)(C)CO` [Pantethine, D-bis-(N-pantothenyl-β-aminoethyl)-disulfide], for which, in the experiment with prolyl hydroxylase, the “Prolyl Hydroxylase Activity, Kidney” value is given as 672.3 ± 65.8 cpm/mg-protein and the “effect on prolyl hydroxylase in the kidney (in words)” value is reported as “no effect”. Further, the “inhibition of hepatic fibrosis (in words)” value in the experiment with hepatic fibrosis was “inhibitory on hepatic fibrosis”.
